Antibody variant affinities, Ab-14 light chain, assay 1

The measurements come from Engelhart et al. 2022 (doi:10.1038/s41597-022-01779-4) through the FLAb antibody collection.

Binding partner: SARS-CoV-2 spike HR2 peptide, sequence PDVDLGDISGINAS.

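The starting antibody came from a phage panning campaign against this peptide. Library AAYL50 holds single substitutions and randomly drawn double and triple substitutions in the CDRs. Affinity was read by AlphaSeq, a pooled yeast mating assay with surface-displayed partners. After mating in shaken culture at 30 °C for 16 h, diploids were selected and their barcode pairs sequenced. Read counts were normalised to the haploid input and turned into Kd by a linear fit to BCL2-family pairs of known affinity, for each replicate. There are three technical replicates.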

Each scFv is VH, the linker GGGGSGGGGSGGGGS, VL, as in the parent Ab-14, and differs from it in the CDRs of the light chain only.
VH: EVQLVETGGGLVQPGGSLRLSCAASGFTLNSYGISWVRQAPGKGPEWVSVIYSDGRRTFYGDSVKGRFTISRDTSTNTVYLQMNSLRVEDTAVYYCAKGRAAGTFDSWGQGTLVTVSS
VL: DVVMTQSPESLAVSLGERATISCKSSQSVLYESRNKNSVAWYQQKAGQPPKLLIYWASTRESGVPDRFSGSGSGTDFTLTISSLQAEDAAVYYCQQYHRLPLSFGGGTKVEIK

The parent's light chain CDRs are KSSQSVLYESRNKNSVA, WASTRES, QQYHRLPLS; each variant's own CDRs replace them letter for letter.
All variants listed here change L100 of the VL, counted from its first residue.
Scale: log10 of Kd in nM, estimated from mating counts; low values are strong binders.
A pair that was not seen in that replicate is written "nd"; this usually means weak binding, but a binder can also be missed.
For reference, the parent read 0.65 as the reference entry and 1.68 as a member of this library.
Background: pairings of library AAYL50 with three empty control strains gave a value in 18% of cases (median 4.19, 5th percentile 2.99). Values in that range, when seen in few replicates, are hard to tell from nonspecific mating.

For KSSQSVLYESRNKNSVA / HASTREI / QQYHRGPLS, the assay gave nd, nd, 3.80. The variant KSMQSVLYESRNKNSVA / WASTRPS / QQYHRDPLS gave 1.95, 1.67, 2.15. With KSSQSVLYESRNKNSVC / WASTRES / QQYHRAELS the result was nd, 4.87, nd. With KSSQSVLYCSRNKNSVA / WASTRES / QQYHRSPLS the result was 4.38, nd, 4.47. For NSSQSVLYESRNKNSVA / WASTRES / QQYHYCPLS, the assay gave 2.17, 1.70, 1.98. With KSSQSVLYESRNKNSVA / WASTRTS / QQYHRKPLS the result was 0.93, 1.02, 0.92. The variant KSSQSVLYESRNKNSVQ / WASTRES / QQYHRAPLQ showed nd, 4.32, 5.31.

The variant KSSVSVLYEGRNKNSVA / WASTRES / QQYHRHPLS gave 5.87, 3.78, nd. For KSSQSVQYESRNKNSVA / WASTRES / QQYTRAPLS, the assay gave 1.56, 1.91, 2.24. The variant KSSQSVLYESRNKNSPA / WASTRES / QQYHRRPLS gave nd, nd, 3.77. With KSSQSVLDESRNKNSVA / WASTRES / QQYHRSALS the result was 1.62, 2.25, 1.66. The variant KSSQSVLYWSRNKNSVA / WASTLES / QQYHRIPLS showed 3.11, 3.24, 3.01. The variant KHSQSVLYESRNKNSVA / WASTRES / QQYHRFPLS showed 1.08, 1.25, 1.25. With LSSQSVLYESRNKNSVA / WAFTRES / QQYHRVPLS the result was nd, nd, nd.

For KSSQSVSYESRNKNSVA / WASTRES / VQYHRFPLS, the assay gave nd, 4.56, nd. The variant KMSQSVLYESRNKNSVA / WASTRES / QQYHREALS gave nd, nd, nd. With KSSQSVLYSSRNSNSVA / WASTRES / QQYHRHPLS the result was nd, nd, nd. The variant KSSYSVLYESRNKNSVA / WASTRES / QQYHRIPLS showed 1.64, 1.74, 2.03. The variant KSSQSVLYESRNKNSVA / WASNRES / QQVHRSPLS showed nd, 4.49, nd. The variant KHSQSVLYEERNKNSVA / WASTRES / QQYHRYPLS gave 0.53, 0.98, 0.69. The variant KSSQSVLYESRNKNSVA / WASRRES / QNYHRKPLS showed 5.82, 3.94, 4.78.

The variant KSSQSVLYESRNANSVA / WASPRES / QQYHRHPLS showed nd, nd, nd. The variant KSSQSVLYESRNKNSIA / WASTRES / QQYHRYPLS showed nd, nd, nd. The variant KSSQSVLYESRNKNSVA / WASTRES / QQYHRSYLS showed nd, nd, 6.49. The variant KSSQSVLYESRNKNSTA / CASTRES / QQYHRVPLS showed 3.99, 3.83, 4.27. The variant KSSGSVLYEDRNKNSVA / WASTRES / QQYHRPPLS gave 0.30, 0.51, 0.46. The variant KSSQPVLYESRNKNSVA / WASTRES / QQYHRTPLS showed 5.11, 4.01, nd. With KSSQSVLYCSRNKNSVA / WASTRES / QQYHRYPES the result was nd, 3.38, nd.

The variant KSSQSVRYESRNKNSVA / WAATRES / QQYHRFPLS gave 2.08, 2.37, 2.45. For KSSQSVLYESRMKNSVA / WASTRES / QKYHRKPLS, the assay gave 2.24, 1.94, 2.62. The variant SSSQSVLYESRYKNSVA / WASTRES / QQYHRVPLS showed 5.54, 5.53, nd. The variant KSSQSVLYESRNKNSVA / WASTRNS / QQYHRVPLD gave nd, 3.62, nd. For KSSQSVLAESRNKNSVA / WASTRES / QQYHRQPAS, the assay gave 4.48, 3.29, nd. The variant KSSQSVLYESRNDNSVA / WASTREN / QQYHRCPLS showed nd, nd, nd. With KPWQSVLYESRNKNSVA / WASTRES / QQYHRQPLS the result was 1.91, 2.53, 2.84.

For KSSQSVLYESRNHNSVA / WASTRES / YQYHRNPLS, the assay gave nd, nd, nd. For KSSQSVLYESRNKNSVA / WASTRES / QCYHRFPLS, the assay gave nd, 1.14, nd. For KSSQSVLYEDRNKNSVA / WISTRES / QQYHRPPLS, the assay gave 2.52, 2.10, nd. The variant KSSQVVLYESRNKNCVA / WASTRES / QQYHRNPLS showed nd, nd, nd. With KSPQSVLVESRNKNSVA / WASTRES / QQYHRWPLS the result was nd, nd, nd. For KSSQSVLYESANKNSVA / WASTRWS / QQYHRNPLS, the assay gave 1.49, 1.59, 1.80. For KSSQMVLYESRNKNSVA / WASDRES / QQYHRVPLS, the assay gave 2.19, 2.90, 2.88.

For KSSQSVLYESRNKNSVA / WASTRES / QCYHRVPLS, the assay gave 1.32, 1.33, 1.32. For KSSQSVLYESRNKNSVA / MASKRES / QQYHREPLS, the assay gave nd, 5.52, nd. The variant KSSQSVLYESSNKNSVA / WASTRES / QRYHRAPLS gave 0.32, 0.52, 0.40. The variant KSSQRVLYESKNKNSVA / WASTRES / QQYHRRPLS showed 1.85, 1.62, 1.56. For TSSQSVLYESRNKNSVA / WASTREL / QQYHRQPLS, the assay gave nd, 4.21, nd. The variant KGSQSVLYQSRNKNSVA / WASTRES / QQYHRGPLS gave 1.54, 1.55, 1.64. The variant KSSQSVLYESRNKNSVA / GASTRES / QQYHGSPLS gave 0.16, 0.45, 0.32.

The variant KSSQSVLYESINKNSVA / WASLRES / QQYHRQPLS gave nd, nd, nd. For KSSQSVLYESRAKNSVA / WACTRES / QQYHRGPLS, the assay gave nd, nd, nd. With KQSQSVYYESRNKNSVA / WASTRES / QQYHRKPLS the result was nd, nd, nd.

Again, the first 8 entries without any signal:

The variant LSSQSVLYESRNKNSVA / WAFTRES / QQYHRVPLS gave nd, nd, nd.
The variant KMSQSVLYESRNKNSVA / WASTRES / QQYHREALS gave nd, nd, nd.
The variant KSSQSVLYSSRNSNSVA / WASTRES / QQYHRHPLS gave nd, nd, nd.
The variant KSSQSVLYESRNANSVA / WASPRES / QQYHRHPLS gave nd, nd, nd.
The variant KSSQSVLYESRNKNSIA / WASTRES / QQYHRYPLS gave nd, nd, nd.
The variant KSSQSVLYESRNDNSVA / WASTREN / QQYHRCPLS gave nd, nd, nd.
The variant KSSQSVLYESRNHNSVA / WASTRES / YQYHRNPLS gave nd, nd, nd.
The variant KSSQVVLYESRNKNCVA / WASTRES / QQYHRNPLS gave nd, nd, nd.